Data from PubChem BioAssay AID1049 (The Scripps Research Institute Molecular Screening Center, 2008).
The entries are a selection whose mix differs from that of the whole data set. Active and inactive are the calls of the source. No stated cut-off is given here; in the data, active means TR-FRET ratio above about 2000; inactive means the rest.

Assay: TR-FRET signal artefacts, primary screen, artefact control for PPARgamma SRC-2 agonist project, biochemical (AID 1049)
Settings: TR-FRET artefact counter-screen; at 8 µM; stronger effect = higher value

SMILES	TR-FRET ratio
CCOc1ncccc1C(=O)NCC1(N2CCOCC2)CCCCC1	inactive: 1420
CC(C)(C)OC(=O)N1CCC(Nc2ccccc2)CC1	inactive: 1380
CCC(CO)(C(=O)OC1CN2CCC1CC2)c1ccccc1 (stereo not given)	inactive: 1260
COc1cc(OC)cc(C(=O)NCC2(N3CCOCC3)CCCCC2)c1	inactive: 1520
CCN1CCC(Nc2cccc(F)c2)CC1	inactive: 1630
CN(C)c1ccc(C(=O)NCC2(N3CCCCC3)CCCCC2)cc1	inactive: 1510
N#Cc1ccc(C(=O)NCC2(N3CCCCC3)CCCCC2)cc1	inactive: 1650
c1ccc(CN2CCC(Nc3ccccc3)CC2)cc1	inactive: 1470
COc1ccc(C(=O)NCC2(N3CCOCC3)CCCCC2)cc1OC	inactive: 1540
N/C(=N\O)c1c(N)no[n+]1[O-]	inactive: 1700
O=C(OC1CN2CCC1CC2)C1c2ccccc2C=Cc2ccccc21 (stereo not given)	inactive: 1490
COc1ccc(CN(CCCl)CCCl)cc1Cl	inactive: 1500
CN(C)c1cccc(C(=O)NCC2(N3CCCCC3)CCCCC2)c1	inactive: 1340
CC(C)c1ccc(NC2CCN(C(=O)OC(C)(C)C)CC2)cc1	inactive: 1480
CN1CCC(Nc2cccc(F)c2)CC1	inactive: 1610
O=C(NCC1(N2CCCCC2)CCCCC1)c1cccc([N+](=O)[O-])c1	inactive: 1530
N#CC1(Nc2ccccc2)CCN(CCc2ccccc2)CC1	inactive: 1470
COc1ccc(NC2CCN(C(=O)OC(C)(C)C)CC2)cc1	inactive: 1470
CN1CCN(CCOC(=O)C(O)(c2ccccc2)c2ccccc2)CC1	inactive: 1450
O=C(NCC1(N2CCOCC2)CCCCC1)c1cc(=O)[nH]c2ccccc12	inactive: 1410
COc1ccc(NC2CCN(CCc3ccccc3)CC2)c(OC)c1	inactive: 1610
COc1ccc(C(=O)NCC2(N3CCCCC3)CCCCC2)c(OC)c1OC	inactive: 1570
O=C(NCC1(N2CCOCC2)CCCCC1)c1cc2ccccc2o1	inactive: 1350
CCOC(=O)N1CCC(Nc2ccc(OC)cc2)CC1	inactive: 1460
O=C(OC1CN2CCC1CC2)C1c2ccccc2Oc2ccccc21 (stereo not given)	inactive: 1680
